Measured values as given in ChEMBL document CHEMBL1143970, “Structure-activity relationships and CoMFA of N-3 substituted phenoxypropyl piperidine benzimidazol-2-one analogues as NOP receptor agonists with analgesic properties” (Bioorg Med Chem, 2008).

Species on record: Homo sapiens
Test: Selectivity for human mu opioid receptor to human NOP receptor

Row | SMILES | Selectivity ratio
1 | COc1ccc(C)c(OC(CCN2CCC(n3c(=O)n(Cc4cnn[nH]4)c4ccccc43)CC2)C(C)C)c1 (centres undefined) | 22.9
2 | COc1ccc(C)c(OC(CCN2CCC(n3c(=O)n(Cc4cc(C)on4)c4ccccc43)CC2)C(C)C)c1 (centres undefined) | 6.6
3 | COc1ccc(C)c(OC(CCN2CCC(n3c(=O)n(Cc4csc(C)n4)c4ccccc43)CC2)C(C)C)c1 (centres undefined) | 2.2
4 | COc1ccc(C)c(OC(CCN2CCC(n3c(=O)n(Cc4noc(C)n4)c4ccccc43)CC2)C(C)C)c1 (centres undefined) | 5.8
5 | COc1ccc(C)c(OC(CCN2CCC(n3c(=O)n(Cc4ncco4)c4ccccc43)CC2)C(C)C)c1 (centres undefined) | 21.4
6 | COc1ccc(C)c(OC(CCN2CCC(n3c(=O)n(Cc4ncsn4)c4ccccc43)CC2)C(C)C)c1 (centres undefined) | 58.9
7 | COc1ccc(C)c(OC(CCN2CCC(n3c(=O)n(Cc4c[nH]cn4)c4ccccc43)CC2)C(C)C)c1 (centres undefined) | 57.5
8 | COc1ccc(C)c(OC(CCN2CCC(n3c(=O)n(Cn4ccnc4C)c4ccccc43)CC2)C(C)C)c1 (centres undefined) | 25.1
9 | COc1ccc(C)c(OC(CCN2CCC(n3c(=O)n(Cc4nnn[nH]4)c4ccccc43)CC2)C(C)C)c1 (centres undefined) | 1.1
10 | COc1ccc(C)c(OC(CCN2CCC(n3c(=O)n(Cn4ccnc4)c4ccccc43)CC2)C(C)C)c1 (centres undefined) | 28.8
11 | COc1ccc(C)c(OC(CCN2CCC(n3c(=O)n(Cc4cscn4)c4ccccc43)CC2)C(C)C)c1 (centres undefined) | 35.5
12 | COc1ccc(C)c(OC(CCN2CCC(n3c(=O)n(Cc4ncn(C)n4)c4ccccc43)CC2)C(C)C)c1 (centres undefined) | 1
13 | COc1ccc(C)c(OC(CCN2CCC(n3c(=O)n(Cc4ccccn4)c4ccccc43)CC2)C(C)C)c1 (centres undefined) | 10.7
14 | COc1ccc(C)c(OC(CCN2CCC(n3c(=O)n(Cc4noc(C(C)(C)C)n4)c4ccccc43)CC2)C(C)C)c1 (centres undefined) | 0.4
